From US6545010B2, “Composition comprising camptothecin or a camptothecin derivative and a platin derivative for the treatment of cancer” (priority 2000, dated 2003) come the findings set out here.

SMILES strings stand for the structures.

For the data set, the system named is Colon Adenocarcinoma C51. The data set is described as follows: CPT-11, cisplatin and combination, three-arm study in mice bearing colon adenocarcinoma C51. On the procedure: This efficacy may be quantified, for example, by the log10 cell kill, which is determined by the following formula: […]
An agent is considered to be active if log10 cell kill is greater than or equal to 0.7. An agent is considered to be very active if the log10 cell kill is greater than 2.8.
In the first arm, four dose levels of CPT-11 were given orally on days four through seven, twice daily. […] This third arm illustrated an example of semi-simultaneous administration.
The LD10 for the single agent was obtained by plotting the toxicity of that agent and the dosage in mg/kg as a log probit graph. Subsequently, the CTI LD10 was obtained by plotting as a log probit graph the observed lethality and the corresponding CTI calculated as the sum of the fraction of the LD10 of each single agent.

Take `N.N.[Cl][Pt][Cl]` [Cisplatin, cis-diaminedichloroplatinum]: the Comments result by setting is: (Cisplatin i.v. 1.9 mg/kg/adm, days 4, 7) “Active”; (Cisplatin i.v. 3.1 mg/kg/adm, days 4, 7) “HNTD Highly Active”; (mouse, in vivo, iv, 8 mg/kg) “Toxic”.
